Test results reported in patent US12599649B2, “Bioactive polypeptides for improvements in plant protection, growth and productivity” (priority 2017, dated 2026).
Non-standard residues stand in square brackets, D forms with d. No end group written: not given here. sY = N[C@@H](Cc1ccc(OS(=O)(=O)O)cc1)C(=O)O

How the values were obtained:
[1] = system: soybean; assay: Soybean seed treatment with Flg22 polypeptides and cellobiose, yield (Example 38); assay type: in vivo; conditions: soybean seed treatment 0.14 Fl. oz per unit, 1 location; polypeptide at 1.0 μM (combination 0.33 μM each; cellobiose 1 mM)
[2] = system: corn; assay: Foliar HpaG-like and At.PSKα on corn, plant height in non-stress and stress (Example 27); assay type: in vivo; conditions: separate set of replicated trials, HpaG-like 1 μM, At.PSKα 100 nM foliar

O=C[C@H](O)[C@@H](O)[C@H](O[C@@H]1O[C@H](CO)[C@@H](O)[C@H](O)[C@H]1O)[C@H](O)CO [Cellobiose]
Average Yield Bu/Ac [1]: 43.98 Bu/Ac

At. PSKα ([sY]I[sY]TQ; listed as Arabidopsis thaliana)
Plant Height (cm) Percentage Change Compared to Control (0.01% surfactant) Non-Stress [2]: −11.8% | Plant Height (cm) Percentage Change Compared to Control (0.01% surfactant) Stress ([2]; stress): +6.1%
